Source: patent US4318904A, “Peptide affinity labels for thrombin and other trypsin-like proteases” (Research Corporation, priority 1980, dated 1982)

Assays:
thrombin = thrombin (Homo sapiens, UniProt P00734); assay: Inactivation of human thrombin, residual esterase activity; assay type: biochemical; conditions: pH 7, read-out: k2 /Ki
mice = assay: LD50 in mice; assay type: in vivo
Source text: This level of inhibitor is a 100-1000 times greater than the LD50 of the reagent in mice.

bovine thrombin [1] = target: T1, bovine thrombin (Bos taurus, UniProt P00735); conditions: 4.5×10^-7 M thrombin + 2.25×10^-7 M label; theoretical value 50%
bovine thrombin [2] = target: T1, bovine thrombin; assay: Inactivation of bovine thrombin, remaining esterase (thioesterase) activity; assay type: biochemical; set-up: Thrombin itself is generated from a pro-enzyme, prothrombin, by the enzymatic action of another proteolytic enzyme, factor Xa

## N=C(N)NCCC[C@H](NC(=O)[C@@H]1CCCN1C(=O)[C@H](N)Cc1ccccc1)C(=O)CCl [D-Phe-Pro-ArgCH2 Cl, D-Phe-Pro-Arg-CH2 Cl.2HCl]
thrombin
  kinact/KI: 1.15e+07 M⁻¹ s⁻¹
mice
  level of inhibitor (1 mg in rabbits) relative to the LD50 in mice: 100-1000 times
Bovine thrombin [1]
  inactivation of bovine thrombin by clotting assay: 48%
Bovine thrombin [2]; 1.0×10^-8 M bovine thrombin + 1.0×10^-8 M label, in less than 5 min, 50 mM Pipes pH 7.0, 0.20 M NaCl, 25° C
  esterase activity of the protease inactivated: 97%
Bovine thrombin [2]; 4.5×10^-7 M thrombin + 2.25×10^-7 M label, theoretical value 50%
  inactivation of bovine thrombin by esterase assay: 51%
Bovine thrombin [2]; 10^-8 M affinity label, in less than 3 minutes
  inactivates the enzyme (thrombin): more than 95%
